Assay results as given in PMC8027564, “A novel luminescence-based β-arrestin recruitment assay for unmodified receptors” (The Journal of Biological Chemistry, 2021).

Target: T1, AT1R (Homo sapiens, UniProt P30556)
T1 construct: signal peptide (N); expressed in transfected cells; host or cells: Hek293
Assay: MeNArC β-arrestin membrane recruitment assay, unmodified AT1R, Hek293
Assay type: cell-based
Conditions: 0.1 μM Ang II added after antagonist

- inhibition of agonist-induced response by antagonist added before agonist: prevent the agonist-induced response
SMILES: CCCc1nc(C(C)(C)O)c(C(=O)O)n1Cc1ccc(-c2ccccc2-c2nnn[nH]2)cc1 [olmesartan]
